AlphaSeq binding of Ab-14 heavy chain variants to a spike HR2 peptide

The measurements come from Li et al. 2023 (doi:10.1038/s41467-023-39022-2) through the FLAb antibody collection.

The target is the same throughout: PDVDLGDISGINAS, from the HR2 region of SARS-CoV-2 spike.

Ab-14 is the parent antibody, in scFv form: VH, then a (GGGGS)3 linker, then VL. The light chain is unchanged in all variants.
VH: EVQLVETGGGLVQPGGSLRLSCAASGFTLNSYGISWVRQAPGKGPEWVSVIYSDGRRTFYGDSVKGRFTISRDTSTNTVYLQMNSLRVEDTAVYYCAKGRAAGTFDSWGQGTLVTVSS
VL: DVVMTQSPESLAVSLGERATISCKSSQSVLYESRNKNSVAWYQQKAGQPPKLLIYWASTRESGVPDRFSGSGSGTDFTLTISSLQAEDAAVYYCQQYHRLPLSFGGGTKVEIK

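The parent was found by panning a naive human phage display library on the peptide. Designed CDR sequences, proposed from the first random library and measured here. Group labels follow the data file (Ctrl: baseline library sampled from a position-specific scoring matrix, with some repeated check sequences; Rand: our label for a block that the file lists under HC and that is probably the random mutants of the ten best first-round binders; En: ensemble of fine-tuned language models; GP: Gaussian process model; GPLM: also part of the Gaussian process libraries; HC: hill climbing; Gen: genetic algorithm; Gibbs: Gibbs sampling; a sequence that several methods proposed may carry one label only). AlphaSeq pools MATa yeast showing the antibodies with MATalpha yeast showing the peptide. Pairs that bind mate more often; barcode pairs of the diploids are counted by sequencing. A regression on co-assayed BCL2-family reference pairs converts the normalised counts of each replicate to an apparent Kd. There are six technical replicates.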

Each variant is given by its three heavy chain CDRs, as the data file delimits them; those of the parent are GFTLNSYGIS, VIYSDGRRTFYGDSVK, GRAAGTFDS. The read-out is the apparent dissociation constant on a log10 scale (nM): the lower, the stronger. A mean of the replicates is given; it leaves out those without a signal. "n.d." means that the variant was in the library but no mating with the target was seen in that replicate; the authors take this as a sign of poor binding, and no number exists. The range of this assay differs from that of the first round, and the authors advise against merging the two. In the paper, a design with two or fewer of six values counts as a poor binder. The parent sequence was in this pool as ten entries: three were never detected, three once, and four in most replicates, with averages from 0.34 to 2.37. Three control strains display no target. For all heavy chain designs, 1% of the pairings with them gave a signal, with a median of 2.08 and one signal in twenty below 0.84, so weak values seen in few replicates may be background. For each scFv, signals with the empty controls are counted beside the result, with their mean in brackets.

{"CDR-H1": "GFTLNSYGIS", "CDR-H2": "VIYSDTRRTFYSDSVK", "CDR-H3": "GRAGGTFDS", "group": "Rand", "replicates, log10 nM": "n.d. / n.d. / n.d. / n.d. / n.d. / n.d.", "mean log10 Kd (nM)": "n.d.", "signal with controls": "0 of 18"}
{"CDR-H1": "GFDLEDYGIS", "CDR-H2": "VIYADGMRTAYADDVK", "CDR-H3": "GNVAGTFDV", "group": "En_Gen", "replicates, log10 nM": "-0.25 / -0.11 / -0.23 / -0.19 / -0.15 / -0.11", "mean log10 Kd (nM)": "-0.17", "signal with controls": "0 of 18"}
{"CDR-H1": "GGDIQEYGIS", "CDR-H2": "VIYADGQRASYADAVK", "CDR-H3": "GTIGGIFSD", "group": "En_Gibbs", "replicates, log10 nM": "0.26 / 1.30 / 1.08 / 1.82 / n.d. / 2.77", "mean log10 Kd (nM)": "1.44", "signal with controls": "0 of 18"}
{"CDR-H1": "GFELNSYGIS", "CDR-H2": "VIYSDGRRTFYADSVK", "CDR-H3": "GRTAGTFDT", "group": "GPLM_Gibbs", "replicates, log10 nM": "0.00 / -0.19 / 0.01 / -0.39 / 0.01 / 0.40", "mean log10 Kd (nM)": "-0.03", "signal with controls": "0 of 18"}
{"CDR-H1": "GFDLNEYGIS", "CDR-H2": "VIYADGRRTYYADSVK", "CDR-H3": "GKNAGTFDQ", "group": "En_HC", "replicates, log10 nM": "0.30 / -0.34 / -0.48 / -0.49 / 0.11 / -0.09", "mean log10 Kd (nM)": "-0.16", "signal with controls": "1 of 18 (0.91)"}
{"CDR-H1": "GFDLNEYGIS", "CDR-H2": "VIYADGRRTAYSDSVK", "CDR-H3": "GEAAGTFDQ", "group": "En_HC", "replicates, log10 nM": "-0.26 / -0.75 / -0.03 / -0.70 / -0.31 / 0.00", "mean log10 Kd (nM)": "-0.34", "signal with controls": "0 of 18"}
{"CDR-H1": "GFTLNSYGIS", "CDR-H2": "VIYSDGRRTFYEDSVK", "CDR-H3": "GSLAKTFDS", "group": "Ctrl", "replicates, log10 nM": "n.d. / n.d. / n.d. / n.d. / n.d. / n.d.", "mean log10 Kd (nM)": "n.d.", "signal with controls": "1 of 18 (1.87)"}
{"CDR-H1": "GFTLNSYGIS", "CDR-H2": "VIYSDGLRTFYADSVK", "CDR-H3": "GQAAGTFDS", "group": "GPLM_Gen", "replicates, log10 nM": "0.85 / 0.74 / n.d. / 0.30 / 1.74 / n.d.", "mean log10 Kd (nM)": "0.91", "signal with controls": "0 of 18"}
{"CDR-H1": "GFTLNSYGIS", "CDR-H2": "VIYSDGRRTFYTDSYK", "CDR-H3": "GKAAGTFDS", "group": "Ctrl", "replicates, log10 nM": "n.d. / n.d. / n.d. / n.d. / n.d. / n.d.", "mean log10 Kd (nM)": "n.d.", "signal with controls": "0 of 18"}
{"CDR-H1": "GFDLNEYGIS", "CDR-H2": "VIYADGRRTQYIDSVK", "CDR-H3": "GEAAGTFDK", "group": "En_HC", "replicates, log10 nM": "-0.03 / -0.15 / 0.03 / -0.45 / -0.28 / 0.31", "mean log10 Kd (nM)": "-0.09", "signal with controls": "0 of 18"}
{"CDR-H1": "GFSLNSYGIS", "CDR-H2": "VIYSDGRRTFYGDSVK", "CDR-H3": "GWAAGTFDD", "group": "GPLM_Gibbs", "replicates, log10 nM": "n.d. / n.d. / n.d. / n.d. / -0.10 / 0.71", "mean log10 Kd (nM)": "0.31", "signal with controls": "0 of 18"}
{"CDR-H1": "GFDLNSYGIS", "CDR-H2": "VIYSDGRRTFYGDQVK", "CDR-H3": "GETAGTFDS", "group": "GP_Gibbs", "replicates, log10 nM": "0.78 / 0.60 / 0.17 / 0.25 / 0.30 / 0.61", "mean log10 Kd (nM)": "0.45", "signal with controls": "1 of 18 (2.30)"}
{"CDR-H1": "GFTLNSYGIS", "CDR-H2": "VIYADGRRTFYGGSVK", "CDR-H3": "GRAAGTFDS", "group": "Ctrl", "replicates, log10 nM": "n.d. / n.d. / n.d. / n.d. / n.d. / n.d.", "mean log10 Kd (nM)": "n.d.", "signal with controls": "1 of 18 (0.91)"}
{"CDR-H1": "GFTLNKYGIS", "CDR-H2": "VIYSDGRRTFYGDSVK", "CDR-H3": "GLAIGTFDS", "group": "Ctrl", "replicates, log10 nM": "n.d. / n.d. / n.d. / n.d. / n.d. / n.d.", "mean log10 Kd (nM)": "n.d.", "signal with controls": "1 of 18 (3.64)"}
{"CDR-H1": "GFLLNDYGIS", "CDR-H2": "VIYSDGRRTFYGDSVK", "CDR-H3": "GRTAGTFDS", "group": "GPLM_Gen", "replicates, log10 nM": "0.65 / 0.54 / 0.10 / 0.24 / 0.42 / 0.63", "mean log10 Kd (nM)": "0.43", "signal with controls": "0 of 18"}
{"CDR-H1": "KFSLNSYGIS", "CDR-H2": "VIYSDGRRTFYDDSVK", "CDR-H3": "GRTAGTFDS", "group": "GPLM_Gen", "replicates, log10 nM": "n.d. / 1.07 / n.d. / n.d. / 0.86 / 1.88", "mean log10 Kd (nM)": "1.27", "signal with controls": "0 of 18"}
{"CDR-H1": "GFDLNEYGIS", "CDR-H2": "VIYADGLRTAYVDSVK", "CDR-H3": "GNVAGTFDV", "group": "En_Gen", "replicates, log10 nM": "-0.15 / -0.44 / -0.25 / -0.48 / -0.50 / -0.15", "mean log10 Kd (nM)": "-0.33", "signal with controls": "0 of 18"}
{"CDR-H1": "GMDLNEYGIS", "CDR-H2": "VIYADGRRTAYINQVK", "CDR-H3": "GKQSMIVSH", "group": "En_Gibbs", "replicates, log10 nM": "n.d. / n.d. / n.d. / n.d. / n.d. / n.d.", "mean log10 Kd (nM)": "n.d.", "signal with controls": "0 of 18"}
{"CDR-H1": "GFDLNEYTIS", "CDR-H2": "VIYSDGKRTFYGDSVK", "CDR-H3": "GRAAGTFDS", "group": "Ctrl", "replicates, log10 nM": "n.d. / n.d. / n.d. / n.d. / n.d. / n.d.", "mean log10 Kd (nM)": "n.d.", "signal with controls": "1 of 18 (1.69)"}
{"CDR-H1": "GFTLNDYGIS", "CDR-H2": "VIYSDGRRTFYSDSFK", "CDR-H3": "GGAYGKFDS", "group": "Ctrl", "replicates, log10 nM": "n.d. / n.d. / n.d. / n.d. / n.d. / n.d.", "mean log10 Kd (nM)": "n.d.", "signal with controls": "0 of 18"}
{"CDR-H1": "GFDLEDYGIS", "CDR-H2": "VIYADGRRTFYSDSVK", "CDR-H3": "GEIAGTFDI", "group": "En_HC", "replicates, log10 nM": "-0.05 / -0.06 / -0.02 / -0.12 / 0.09 / 0.33", "mean log10 Kd (nM)": "0.03", "signal with controls": "0 of 18"}
{"CDR-H1": "GFDLDEYGIS", "CDR-H2": "VIYADGVRTSYADSVK", "CDR-H3": "GEVAGTFDV", "group": "En_Gen", "replicates, log10 nM": "-0.09 / -0.52 / -0.52 / -0.43 / -0.79 / 0.01", "mean log10 Kd (nM)": "-0.39", "signal with controls": "0 of 18"}
{"CDR-H1": "GFTLNEYGIS", "CDR-H2": "VIYSDGRRTFYVCSVK", "CDR-H3": "GRAAVTFDQ", "group": "Rand", "replicates, log10 nM": "n.d. / n.d. / n.d. / n.d. / n.d. / n.d.", "mean log10 Kd (nM)": "n.d.", "signal with controls": "0 of 18"}

The opening 2 entries, copied out:

CDR-H1	CDR-H2	CDR-H3	group	replicates, log10 nM	mean log10 Kd (nM)	signal with controls
GFTLNSYGIS	VIYSDTRRTFYSDSVK	GRAGGTFDS	Rand	n.d. / n.d. / n.d. / n.d. / n.d. / n.d.	n.d.	0 of 18
GFDLEDYGIS	VIYADGMRTAYADDVK	GNVAGTFDV	En_Gen	-0.25 / -0.11 / -0.23 / -0.19 / -0.15 / -0.11	-0.17	0 of 18